Target: T1, carcinoembryonic antigen (CEA) (UniProt P06731 35-685, limits assumed, 125I label in the phage-lift and cell binding assays; unlabeled soluble CEA in the blot overlay)
T1 construct: also called soluble CEA; 125I labeled CEA
T1 sequence (looked up): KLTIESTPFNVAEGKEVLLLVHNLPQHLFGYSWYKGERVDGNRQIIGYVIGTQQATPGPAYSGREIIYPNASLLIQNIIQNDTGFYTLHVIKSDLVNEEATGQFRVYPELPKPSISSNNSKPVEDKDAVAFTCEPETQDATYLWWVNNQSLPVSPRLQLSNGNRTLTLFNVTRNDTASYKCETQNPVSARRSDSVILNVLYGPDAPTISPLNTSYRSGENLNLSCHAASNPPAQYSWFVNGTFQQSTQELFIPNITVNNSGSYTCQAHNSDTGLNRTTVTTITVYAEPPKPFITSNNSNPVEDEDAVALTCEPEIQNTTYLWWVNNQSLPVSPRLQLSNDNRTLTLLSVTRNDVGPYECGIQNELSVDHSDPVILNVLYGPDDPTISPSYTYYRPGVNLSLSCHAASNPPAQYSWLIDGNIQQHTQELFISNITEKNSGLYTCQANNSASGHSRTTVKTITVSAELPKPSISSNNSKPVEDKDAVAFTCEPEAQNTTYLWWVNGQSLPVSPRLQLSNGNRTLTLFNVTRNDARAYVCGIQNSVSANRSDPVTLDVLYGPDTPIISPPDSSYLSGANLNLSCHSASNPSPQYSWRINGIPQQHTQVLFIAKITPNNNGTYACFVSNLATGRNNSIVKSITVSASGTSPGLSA
Assay: blot overlay: SDS/PAGE, PVDF membrane exposed to soluble CEA, then anti-CEA antibody
Description: FIG. 4 is a Western blot of rat hnRNP M4 protein expressed in E coli showing CEA binding. Rat cDNA corresponding to hnRNP M4 ORF was placed into a prokaryotic expression vector pGEX3T-4 allowing production of a GST-hnRNP M4 fusion protein. The Kupffer cell lysate and pGEX-4T-3/hnRNP M4 fusion proteins (2 clones) were subjected to SDS/PAGE and transferred into the PVDF membrane. This membrane was exposed to the soluble 1 μM CEA followed by the anti-CEA antibody. […] Line 4 corresponds to a negative control that is a pGEX3T-4 vector without the hnRNP M4 cDNA.
To further substantiate this finding and to estimate the molecular mass of the encoded protein, the cDNA corresponding to hnRNP M4 ORF was placed into a prokaryotic expression pGEX system allowing production of a GST-hnRNP M4 fusion protein. A series of pGEX vectors were designed for inducible, high level intracellular expression of the cDNA as a fusion protein with Schistosoma japonicum GST protein (Amersham Pharmacia Biotech, Piscataway, N.J.). The hnRNP M4 cDNA was inserted into pGEX-4T-3 vector to maintain the proper reading frame. The fusion protein was obtained as described below. The Kupffer cell lysate and pGEX-4T-3/hnRNP M4 fusion proteins (2 clones) were subjected to SDS/PAGE and transferred to a PVDF membrane (FIG. 4). […] A single 80 kD band was determined in Kupffer cells and in the fusion proteins. […]

binding result: no binding (tested: 1 µg/ml CEA)
B1: GST from pGEX-4T-3 vector without the hnRNP M4 cDNA (negative control) (other, Schistosoma japonicum, UniProt P08515 1-218, looked up)
chain: MSPILGYWKIKGLVQPTRLLLEYLEEKYEEHLYERDEGDKWRNKKFELGLEFPNLPYYIDGDVKLTQSMAIIRYIADKHNMLGGCPKERAEISMLEGAVLDIRYGVSRIAYSKDFETLKVDFLSKLPEMLKMFEDRLCHKTYLNGDHVTHPDFMLYDALDVVLYMDPMCLDAFPKLVCFKKRIEAIPQIDKYLKSSKYIAWPLQGWQATFGGGDHPPK
notes: also called empty vector; vector alone

Source: US20050058651A1 (published 2005)
